US7511068B2, “Mercaptoimidazoles as CCR2 receptor antagonists” (Janssen Pharmaceutica, N.V., priority 2003, dated 2009)

The chains behind the UniProt entries cited, without tags or fusion partners. Residues count along the entry.
UniProt P41597, 1-360 isoform 2: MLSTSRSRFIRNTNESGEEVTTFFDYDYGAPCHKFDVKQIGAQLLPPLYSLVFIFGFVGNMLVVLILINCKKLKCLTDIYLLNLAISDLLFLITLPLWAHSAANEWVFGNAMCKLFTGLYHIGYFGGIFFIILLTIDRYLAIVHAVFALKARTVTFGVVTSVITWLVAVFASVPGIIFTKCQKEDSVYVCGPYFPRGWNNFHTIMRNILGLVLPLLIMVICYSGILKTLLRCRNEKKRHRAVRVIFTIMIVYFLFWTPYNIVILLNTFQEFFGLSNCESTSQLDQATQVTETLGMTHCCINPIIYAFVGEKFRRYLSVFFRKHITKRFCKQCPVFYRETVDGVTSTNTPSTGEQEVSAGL

Biological target: CCR2 receptor (Homo sapiens, UniProt P41597)
Test: Inhibition of MCP-1 induced Ca-flux in human THP-1 cells
Conditions: inhibition of specific MCP-1 (10^-7 M hMCP-1) induced Ca2+ flux in human THP-1 cells; pIC50 = -log IC50 (molar)
Protocol: C. Pharmacological Example Inhibition of MCP-1 Induced Ca-flux in Human THP-1 Cells
MCP-1 binding to the CCR2 receptor induces a rapid and transient intracellular release of Ca^2+ (secondary messenger) in several cell lines (Charo et al, PNAS 1994). Free Ca^2+ levels can be measured using a Ca^2+ sensitive dye. When the CCR2 receptor is blocked with a CCR2 receptor antagonist, the MCP-1 induced release of Ca^2+ is inhibited.
Human THP-1 cells (monocytic cell line, ATCC TIB-202) were cultured in RPMI 1640 medium supplemented with 10% fetal calf serum (FCS), 1% L-Glutamine, penicillin (50 U/ml) and streptomycin (50 μg/ml) (all GIBCO BRL, Gent). After centrifugation, cells were loaded for 30 minutes with the Ca^2+ sensitive fluorescent dye Fluo-3 AM (Molecular Probes, Leiden, Netherlands) (2 million cells/ml in RPMI medium containing 4 μM Fluo-3 AM, 20 mM HEPES, 0.1% Bovine Serum Albumin (BSA) and 5 mM probenecid). Excess dye was removed by 3-fold washing with buffer (5 mM HEPES, 140 mM NaCl, 1 mM MgCl2, 5 mM KCl, 10 mM glucose, 2.5 mM probenecid, 1.25 mM CaCl2, 0.1% BSA; all further incubations were done in this buffer). Cells were plated at a density of 150 000 cells/well in dark-wall 96-well plates (Costar, Cambridge, Mass.) and sedimented by centrifugation (1 minute). The cells were pre-incubated for 20 minutes with test compound. Then, 10^−7 M hMCP-1 (Bachem, Bubendorf, Switserland) was added. Changes in intracellular free Ca^2+ concentration were measured using the Fluorescent Imaging Plate Reader (FLIPR, Molecular Devices, Munchen, Germany). Fluorescence was recorded every second from 10 seconds before the addition of the MCP-1 till 2 minutes after the addition (first minute: 60 records with 1 second intervals, second minute 20 records with 3 second intervals).
The maximal fluorescence obtained during this time frame was used for further calculations.
Table 4 reports pIC50 values obtained in the above-described test for compounds of formula (I). pIC50 defines −log IC50 wherein IC50 is the molar concentration of the test compound which inhibits 50% of specific MCP-1 induced Ca^2+ flux.

Row | SMILES | pIC50
1 | O=c1[nH][nH]c(=O)c2c1[nH]c(=S)n2C(c1ccccc1)c1ccc(Cl)c(Cl)c1 (stereo not shown) | 5.19
2 | CCC(c1ccc(Cl)c(Cl)c1)n1c(=S)[nH]c2c(=O)[nH][nH]c(=O)c21 (stereo not shown) | 6.28
3 | CCC(c1ccc(F)c(F)c1)n1c(=S)[nH]c2c(=O)[nH][nH]c(=O)c21 (stereo not shown) | 6.145
4 | CCC(c1ccc(Cl)c(Cl)c1)n1c(C(=O)NNC(C)=O)c[nH]c1=S (stereo not shown) [Compound 119] | 5.78
5 | O=c1[nH][nH]c(=O)c2c1[nH]c(=S)n2C(c1ccc(Cl)c(Cl)c1)C1CCCCC1 (stereo not shown) | 5.55
6 | CCOC(=O)c1c[nH]c(=S)n1C(CC)c1ccc(F)c(F)c1 (stereo not shown) | 6.125
7 | CCC(c1ccc(Br)c(Br)c1)n1c(C(=O)OC)c(C(=O)OC)[nH]c1=S (stereo not shown) | 7.53
